Results from patent US4433147A, “Process for preparing 10-deazaminopterins” (priority 1982, dated 1984).
Like-named read-outs stand apart in the source and are kept apart here.

Columns and labels:
[1] = test system: L1210 leukemia; experiment: L1210 leukemia in BD (2) F1 female mice, i.p., 10-alkyl derivatives (Example 9, Table II); conditions: every two days times five
[2] = test system: Ehrlich ascites
[3] = test system: carrier in tumor; experiment: membrane transport by carrier in tumor; format: cell-based; conditions: dAM and MTX
[4] = test system: P815 ascites
[5] = test system: L1210 leukemia; experiment: L1210 leukemia in BD (2) F1 female mice, i.p., increase in median life span (Example 8, Table I); conditions: three times per week

Structure (SMILES): CN(Cc1cnc2nc(N)nc(N)c2n1)c1ccc(C(=O)N[C@@H](CCC(=O)O)C(=O)O)cc1 [Methotrexate]
- AST ([1]; 6 mg/kg i.p.): 13.8 ± 1.2 days
- ILS ([1]; 6 mg/kg i.p.): +105%
- AST ([1]; 9 mg/kg i.p.): 15.8 ± 1.7 days
- ILS ([1]; 9 mg/kg i.p.): +135%
- AST ([1]; 12 mg/kg i.p.): 16.9 ± 1.5 days
- ILS ([1]; 12 mg/kg i.p.): +149%
- AST ([1]; 18 mg/kg i.p.): 17.3 ± 1.8 days
- ILS ([1]; 18 mg/kg i.p.): +158%
- AST ([1]; 24 mg/kg i.p.): 15.3 ± 2.1 days
- ILS ([1]; 24 mg/kg i.p.): +127%
- ILS (increased life span) ([2]; 6 mg/kg s.c. every 2 days × 5): 15.1%
- ILS (increased life span) ([2]; 9 mg/kg s.c. every 2 days × 5): 20.9%
- ILS (increased life span) ([2]; 12 mg/kg s.c. every 2 days × 5): 17.0%
- Maximum ILS ([2]; against Ehrlich, s.c., q2d×5): +19%
- competition for carrier mechanism [3]: compete for the same carrier mechanism
- ILS (increased life span) ([4]; 6 mg/kg s.c. every 2 days × 5): 75.0%
- ILS (increased life span) ([4]; 9 mg/kg s.c. every 2 days × 5): 100.3%
- ILS (increased life span) ([4]; 12 mg/kg s.c. every 2 days × 5): 109.1%
- Maximum ILS ([4]; against P815, s.c., q2d×5): +103%
- Increased life span ([5]; 0.75 mg/kg i.p.): 46.0%
- Median life span ([5]; 0.75 mg/kg i.p.): 9.9 ± 1.0 days
- Increased life span ([5]; 1.5 mg/kg i.p.): 86.5%
- Median life span ([5]; 1.5 mg/kg i.p.): 12.7 ± 1.8 days
- Increased life span ([5]; 3.0 mg/kg i.p.): 152.8%
- Median life span ([5]; 3.0 mg/kg i.p.): 17.5 ± 2.9 days
- Increased life span ([5]; 6.0 mg/kg i.p.): 169.0%
- Median life span ([5]; 6.0 mg/kg i.p.): 18.3 ± 3.5 days
